T1: human PTH/PTHrP receptor (human, UniProt Q03431 27-593)
T1 construct: whole, on cells; Transiently expressed on COS-7 cells
T1 sequence (looked up): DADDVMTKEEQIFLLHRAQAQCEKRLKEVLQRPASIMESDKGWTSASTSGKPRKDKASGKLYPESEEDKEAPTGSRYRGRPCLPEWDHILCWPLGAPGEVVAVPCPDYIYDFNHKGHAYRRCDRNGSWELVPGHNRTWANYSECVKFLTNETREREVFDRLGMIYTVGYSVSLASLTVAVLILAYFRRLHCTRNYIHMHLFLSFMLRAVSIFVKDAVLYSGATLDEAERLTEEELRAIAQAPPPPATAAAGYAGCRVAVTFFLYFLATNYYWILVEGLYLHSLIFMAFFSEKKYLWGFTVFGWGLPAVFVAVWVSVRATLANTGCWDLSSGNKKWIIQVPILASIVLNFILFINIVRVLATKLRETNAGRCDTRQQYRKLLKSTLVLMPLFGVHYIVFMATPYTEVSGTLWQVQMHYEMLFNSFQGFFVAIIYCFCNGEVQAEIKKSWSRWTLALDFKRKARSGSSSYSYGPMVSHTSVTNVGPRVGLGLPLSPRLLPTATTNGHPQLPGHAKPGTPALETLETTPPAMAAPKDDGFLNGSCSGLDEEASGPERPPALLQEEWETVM

Protein sequences, listed by entry. Tags and fused reporters are not part of them. Residues count along the entry.
UniProt P49190, 25-550: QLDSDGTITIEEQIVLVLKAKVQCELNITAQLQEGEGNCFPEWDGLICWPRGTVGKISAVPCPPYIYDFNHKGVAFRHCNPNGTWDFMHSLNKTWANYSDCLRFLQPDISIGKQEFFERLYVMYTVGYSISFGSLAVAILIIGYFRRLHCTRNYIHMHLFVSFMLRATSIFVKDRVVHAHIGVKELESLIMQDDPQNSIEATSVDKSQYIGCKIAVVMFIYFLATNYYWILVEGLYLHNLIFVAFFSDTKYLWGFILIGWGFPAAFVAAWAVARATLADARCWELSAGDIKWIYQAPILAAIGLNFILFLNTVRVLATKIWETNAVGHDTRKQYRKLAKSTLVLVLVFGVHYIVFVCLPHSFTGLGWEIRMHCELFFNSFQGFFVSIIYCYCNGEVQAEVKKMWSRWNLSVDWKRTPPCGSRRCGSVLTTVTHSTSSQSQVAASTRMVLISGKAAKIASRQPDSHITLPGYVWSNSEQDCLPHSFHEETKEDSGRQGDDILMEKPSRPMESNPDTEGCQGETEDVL


How the values were obtained:
[1] = target: T2, human PTH-2 receptor (human, UniProt P49190 25-550); experiment: radioligand competition (tracer 125I-[Nle8,21,Tyr34]rPTH-(1-34)NH2) on transfected COS-7 cells, RT 2 h
T2 construct: whole, on cells; Transiently expressed on COS-7 cells
Procedure: (§1) Assays were performed for 2 hours at room temperature. Data are the mean (± s.e.m.) of IC$50$ values obtained from the number of experiments indicated (n).
(§2) Binding reactions were performed as described previously. Id. […] Incubations were at room temperature for 2 hours, except for experiments involving Scatchard analysis, which were performed at 4° C. for 6 hours. At the end of the binding reaction, the cells were rinsed 3 times with 0.5 ml of binding buffer, lysed with 0.5 ml of 5M NaOH, and the entire lysate was counted. […] Estimates of the number of receptors/cell derived from these studies assumed a single class of binding sites and a transfection efficiency of 20% (Abou-Samra, A. B. et al., *Proc. Natl. Acad. Sci* (*USA*) 89:2732–2736 (1992)).

[2] = target: T1, human PTH/PTHrP receptor; experiment: as above
Procedure: as §1, §2

| Binder | IC50 [1] | IC50 [2] |
| --- | --- | --- |
| AVSEHQLLHDKGKSLNSMERVEWLRKKLQDVHNY (C-terminal tyrosine-amide, Synthetic PTH/PTHrP hybrid ligand; also called PTHrP-(1-14)/PTH-(15-34)) [Hybrid-1 hPTHrP-(1-14)/[Y34]hPTH-(15-34)NH2] | 606 nM | 7900 nM |
| AVSEHQLLHDKGKSIQDLRRREWLRKKLQDVHNY (C-terminal tyrosine-amide, Synthetic PTH/PTHrP hybrid ligand; also called PTHrP-(1-21)/PTH-(22-34)) [Hybrid-4 hPTHrP-(1-21)/[Y34]hPTH-(22-34)NH2] | 11 nM | 19 nM |
| IQDLRRRFWLHHLIAEIHTAEY (C-terminal tyrosine-amide) [[W23, Y36]hPTHrP-(15-36)NH2] | 370 nM |  |
| IQDLRRREWLHHLIAEIHTAEY (C-terminal tyrosine-amide) [[E22, W23, Y36]hPTHrP-(15-36)NH2] | 137 nM |  |
| AVSEIQLLHDKGKSIQDLRRRFWLHHLIAEIHTAEY (C-terminal tyrosine-amide, also called [Ile^5, Trp^23]PTHrP-(1-36); [Ile^5,Trp^32]PTHrP-(1-36) [sic]) [[I5, W23, Y36]hPTHrP-(1-36)NH2] |  | 16 nM |
| AVSEIQLLHDKGKSIQDLRRRFFLHHLIAEIHTAEY (C-terminal tyrosine-amide, also called [Ile^5]PTHrP-(1-36)) [[I5, Y36]hPTHrP-(1-36)NH2] | 695 nM |  |
| AVSEHQLLHDKGKSIQDLRRRFWLHHLIAEIHTAEY (C-terminal tyrosine-amide, also called [W23, Y36]hPTHrP-(1-36)NH2; [Trp^23]PTHrP-(1-36)) [[Trp^23,Tyr^36]hPTHrP-(1-36)NH2] |  | 47 nM |
| AVSEIQLMHNLGKHLASVERMQWLRKKLQDVHNY (norleucine at 8 and 21; C-terminal amide; 125I-labelled (chloramine-T) where used as tracer) [[Nle^8,21, Tyr^34]rat(r)PTH(1-34)NH2] | 11 nM | 58 nM |
| SVSEIQLMHNLGKHLNSMERVEWLRKKLQDVHNY (C-terminal tyrosine-amide, also called [Y34]hPTH-(1-34)NH2) [[Tyr^34]hPTH-(1-34)NH2] | 16 nM | 39 nM |
| SVSEIQLMHNLGKHLNSMERVEFLRKKLQDVHNY (C-terminal tyrosine-amide, also called [Phe^23]PTH-(1-34)) [[F23, Y34]hPTH-(1-34)NH2] | 453 nM | 95 nM |
| SVSEHQLMHNLGKHLNSMERVEWLRKKLQDVHNY (C-terminal tyrosine-amide, also called [H5]PTH-(1-34)) [[H5, Y34]hPTH-(1-34)NH2] | 249 nM | 5100 nM |

The next lines start with the values.

| IC50 [1] | IC50 [2] | Binder |
| --- | --- | --- |
| 6050 nM |  | AVSEHQLLHDKGKSIQDLRRRFFLRKKLQDVHNY (C-terminal tyrosine-amide, Synthetic PTH/PTHrP hybrid ligand; also called PTHrP-(1-23)/PTH-(24-34)) [Hybrid-3 hPTHrP-(1-23)/[Y34]hPTH-(24-34)NH2] |
|  | 4970 nM | AVSEHQLLHDKGKSIQDLERVEWLRKKLQDVHNY (C-terminal tyrosine-amide; radioiodinated in the direct binding test of paragraph 27, Synthetic PTH/PTHrP hybrid ligand; also called radioiodinated hybrid-5 peptide) [Hybrid-5 hPTHrP-(1-18)/[Y34]hPTH-(19-34)NH2] |
| 750 nM | 497 nM | SVSEIQLMHNLGKHIQDLRRRFFLHHLIAEIHTY (C-terminal tyrosine-amide, Synthetic PTH/PTHrP hybrid ligand; also called PTH-(1-14)/PTHrP-(15-34)) [Hybrid-2 hPTH-(1-14)/[Y34]hPTHrP-(15-34)NH2] |
| 4970 nM |  | IQDLRRRFFLHHLIAEIHTAEY (C-terminal tyrosine-amide) [[Y36]hPTHrP-(15-36)NH2] |
| 624 nM |  | LNSMERVEWLRKKLQDVHNY (C-terminal tyrosine-amide) [[Y34]hPTH-(15-34)NH2] |
